# Assay results as given in US20250248993A1, “CAMPTOTHECIN DERIVATIVES THAT BIND TO DDX5 PROTEIN AND PRODRUGS THEREOF” (priority 2022, published 2025).
# Tested on: JIMT-1 breast cancer cells
# Test: In vivo efficacy, JIMT-1 xenograft mouse model
# Set-up: species or system BALB/c nude mice
substance,measurement,setting,value
Enhertu [reference compound],tumor volume,"3 mg/kg i.v. twice (day 0, day 6), 6 + 0 days",175.58 mm^3
same,tumor volume,"3 mg/kg i.v. twice (day 0, day 6), 6 + 3 days",295.80 mm^3
same,tumor volume,"3 mg/kg i.v. twice (day 0, day 6), 6 + 7 days",325.74 mm^3
same,tumor volume,"3 mg/kg i.v. twice (day 0, day 6), 6 + 10 days",354.87 mm^3
same,tumor volume,"3 mg/kg i.v. twice (day 0, day 6), 6 + 14 days",405.93 mm^3
same,tumor volume,"10 mg/kg i.v. twice (day 0, day 6), 6 + 0 days",175.87 mm^3
same,tumor volume,"10 mg/kg i.v. twice (day 0, day 6), 6 + 3 days",270.11 mm^3
same,tumor volume,"10 mg/kg i.v. twice (day 0, day 6), 6 + 7 days",254.45 mm^3
same,tumor volume,"10 mg/kg i.v. twice (day 0, day 6), 6 + 10 days",249.13 mm^3
same,tumor volume,"10 mg/kg i.v. twice (day 0, day 6), 6 + 14 days",249.18 mm^3
